Here are results for one molecule from patent publication US20070004634A1 (published 2007).

This assay addresses T1, His-tagged soluble recombinant human IGF-IR (srhIGF-1R-his) (human, UniProt P08069 31-935).
T1 construct: extracellular domain; Bought construct; not shown: His tag
In words: ALPHAScreen competition against b-hIGF-1 on srhIGF-1R-his. Background: Bead proximity is the source of the signal in Alpha formats.

With GRVDWLQRNANFYDWFVAELG [S175], the IC50 turned out to be 7.1 µM.

As a reminder, the IC50 is the point on the concentration scale where inhibition reaches its midpoint.
